Square brackets hold non-standard residues; d marks the D form. Peptide text beside a SMILES is read from it. * marks the point of attachment. pNA = O=[N+]([O-])c1ccc(N*)cc1; Cbz = O=C(OCc1ccccc1)*; Ms = CS(=O)(=O)*
Legend:
[1] = biological target: T1, Thrombin bovine (Bos taurus, UniProt P00735); experiment: Determination of thrombin sensitivity; type: biochemical; conditions: Kcat/Km FXa bovine divided by Kcat/Km thrombin bovine
T1 construct: Thrombin bovine (KabiVitrum) with a constant concentration E0 =1.3 nmol/l; purchased KabiVitrum

By UniProt entry, the sequences of proteins in these tests, tags left out. Residues count along the entry.
UniProt P00743, 41-180 partner limits assumed: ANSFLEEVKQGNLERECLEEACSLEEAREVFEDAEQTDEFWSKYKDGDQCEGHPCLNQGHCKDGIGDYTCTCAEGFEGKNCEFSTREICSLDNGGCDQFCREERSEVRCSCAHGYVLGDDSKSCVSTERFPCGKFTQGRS
UniProt P00743, 234-492 limits assumed: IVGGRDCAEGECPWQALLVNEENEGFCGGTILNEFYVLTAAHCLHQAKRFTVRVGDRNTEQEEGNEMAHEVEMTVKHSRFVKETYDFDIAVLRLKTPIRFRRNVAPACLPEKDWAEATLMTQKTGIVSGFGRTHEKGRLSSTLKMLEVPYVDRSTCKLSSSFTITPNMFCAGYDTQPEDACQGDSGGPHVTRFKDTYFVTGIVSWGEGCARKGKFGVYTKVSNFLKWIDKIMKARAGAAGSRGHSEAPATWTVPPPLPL
UniProt P00742, 41-179 partner limits assumed: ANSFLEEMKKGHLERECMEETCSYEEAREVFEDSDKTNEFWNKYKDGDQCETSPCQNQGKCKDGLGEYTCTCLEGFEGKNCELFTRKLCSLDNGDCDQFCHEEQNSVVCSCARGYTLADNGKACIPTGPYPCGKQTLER
UniProt P00742, 235-488 limits assumed: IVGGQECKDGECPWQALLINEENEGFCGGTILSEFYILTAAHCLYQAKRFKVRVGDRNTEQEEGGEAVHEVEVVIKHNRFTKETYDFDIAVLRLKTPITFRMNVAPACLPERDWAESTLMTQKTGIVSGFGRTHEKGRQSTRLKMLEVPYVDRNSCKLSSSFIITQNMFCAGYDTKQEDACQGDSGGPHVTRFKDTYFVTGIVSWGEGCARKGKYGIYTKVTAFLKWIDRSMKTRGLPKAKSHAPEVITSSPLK

[2] = biological target: FXa bovine (Bos taurus, UniProt P00743); experiment: Determination of the kinetic constants for FXa bovine (chromogenic/fluorogenic substrate hydrolysis); conditions: trisbuffer pH 8.3, I=0.25, 37° C.
[3] = biological target: T2, FXa human (Homo sapiens, UniProt P00742); experiment: Determination of kinetic constants for FXa human (plasma activated with RVV+CaCl2); type: biochemical; conditions: trisbuffer pH 7.0, I=0.25, 37° C.
T2 construct: from tissue; host or cells: human plasma
Description: The kinetic data for the substrates are determined by measuring the initial velocity of hydrolysis (Vi) at different substrate concentrations (Si) and at constant enzyme concentrations (Eo). The binding constant (Km) and the maximum velocity (Vmax) are obtained in known manner from Lineweaver-Burk-plot, then the Kcat is calculated (Hemker H. C. loc. cit.)
The substrates in concentrations between 0.1-0.7 mmol/l (Si) are mixed with FXa human plasma and treated according to the method as described by Aurell; L., et al. (Perspectives in Hemostatis, Ed. Fareed J. et al, New York, Pergamon Press 1981, p. 382-388).
10 μl test plasma, control or standard and 200 μl trisbuffer solution (0.05 mol/l tris, pH 7.0, I=0.25 (NaCl)), polybrene (0.1 g/l) are mixed and incubated at 37° C. for 2-4 minutes. 200 μl substrate (37° C.) in concentrations between 0.1-0.7 mmol/l dissolved in trisbuffer solution prepared according to the above are added. The mixture is well stirred and within 30 seconds 200 μl RVV+CaCl2 (20°-25° C.) are added and the mixture is stirred. The absorbance change is measured at once in a spectrophotometer at 405 nm and 37° C.

| Structure (SMILES) | ratio for the selectivity constant FXa bovine through thrombin [1] | Kcat /Km (selectivity constant) [2] [l/μmol · sek] | Vmax /Km [3] [min⁻¹] |
| --- | --- | --- | --- |
| CC(C)C[C@@H](NS(C)(=O)=O)C(=O)NCC(=O)N[C@@H](CCCNC(=N)N)C(=O)Nc1ccc([N+](=O)[O-])cc1 [CBS 31.39, CH3 SO2 --D--Leu--Gly--Arg--pNA.AcOH, reference compound] (Ms-[dL]-Gly-Arg-pNA) | 3.2 | 1.00 | 0.057 |
| N=C(N)NCCC[C@H](NC(=O)CNC(=O)[C@@H](CCCNC(=N)N)NC(=O)OCc1ccccc1)C(=O)Nc1ccc([N+](=O)[O-])cc1 [Example 1, N^α --Z--D--Arg--Gly--Arg--pNA.2HCl] (Cbz-[dR]-Gly-Arg-pNA) | 22.7 | 2.27 | 0.192 |
| CCS(=O)(=O)N[C@H](CCCNC(=N)N)C(=O)NCC(=O)N[C@@H](CCCNC(=N)N)C(=O)Nc1ccc([N+](=O)[O-])cc1 [Example 4, N^α --Ets--D--Arg--Gly--Arg--pNA.2HCl] | 25.4 | 1.42 | 0.135 |
| COc1ccc(COC(=O)N[C@H](CCCNC(=N)N)C(=O)NCC(=O)N[C@@H](CCCNC(=N)N)C(=O)Nc2ccc([N+](=O)[O-])cc2)cc1 [Example 9, N^α --Moz--D--Arg--Gly--Arg--pNA.2HCl] | 13.6 | 2.06 | 0.242 |
| N=C(N)NCCC[C@H](NC(=O)CNC(=O)[C@@H](CCCNC(=N)N)NS(=O)(=O)Cc1ccccc1)C(=O)Nc1ccc([N+](=O)[O-])cc1 [Example 16, N^α --Bzls--D--Arg--Gly--Arg--pNA.2HCl] | 25.9 | 2.75 | 0.300 |

— patent US4797472A, “New peptide derivatives” (KabiVitrum AB, priority 1986, dated 1989)
